# Experimental data reported in patent US20250163169.
# System: 43-mer covering the stalk region of CD95L (residue 103 to residue 145)
substance,measurement,value
MMP13,percentage of degradation of the 43-mer (LC-MS/MS),more of 20% of cleavage
